{"source": "patent US20210145806A1", "about": "“Methods of Treating Brain Cancer and Related Diagnostic Methods” (Emory University, priority 2019, published 2021)", "key": {"[1]": {"tested_on": "SHH-activated MB cells (DAOY, UW228 and ONS-76)", "test": "Soft agar colony formation assay (CFA)", "settings": "composite of DAOY, UW228, ONS-76; compared to vehicle control"}, "[2]": {"tested_on": "SmoA1 murine SHH-activated MB organotypic slice culture", "test": "Murine MB organotypic slice culture (OSC), cell death by cleaved caspase 3 staining", "settings": "24 h treatment; compared to control"}}, "data": [{"substance": "4-hydroxycyclophosphamide", "values": [{"measurement": "concentration at which colony formation is inhibited", "setting": "[1]", "result": 3, "unit": "µM"}, {"measurement": "concentration giving significant increase in cell death (CC3 standardized to DAPI)", "setting": "[2]", "result": 2, "unit": "µM"}]}]}
